JMJD2E inh = JMJD2E (human) inhibition | B2RXH2 | Potency, µM (top dose mostly 57.1 µM), inactives show at the top dose activity change, negative = inhibition, usual class: inhibitors | AID 2147 | JMJD2E catalytic domain, FDH-coupled NADH fluorescence (FDH is formaldehyde dehydrogenase) | 230,000 tested, 1.6% active; active means well fitted inhibition curve with a large enough effect, not every such curve was filed as active; inconclusive means small, poorly fitted or top-dose-only effect, or another doubt; inactive means no such curve, though single readings can be large or run the other way;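 further: potency means the concentration at half of the fitted maximal effect; 0% = wells with enzyme and -100% = buffer wells without enzyme; nearly all actives have a fitted effect of over 50% in size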
Sfp inh = qHTS Assay for Inhibitors of Bacillus subtilis Sfp phosphopantetheinyl transferase (PPTase); actives 3.5% (n = 310,000); AID 1490, 2009; Biochemical Sfp PPTase activity, qHTS; Potency, µM, for inactives: max response, negative = inhibition, usual class: inhibitors; 4'-phosphopantetheinyl transferase ffp (Bacillus subtilis), Q9F4F7; active means well fitted inhibition curve with a large enough effect; inconclusive means small, poorly fitted or top-dose-only effect, or another doubt; inactive means no such curve, though single readings can be large or run the other way;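 further: the enzyme is Sfp with the accession as filed and its product quenches rhodamine fluorescence; potency means the concentration at half of the fitted maximal effect; 0% = enzyme reaction without inhibitor and -100% = no enzyme wells; top concentration of the series not given in the record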
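Reaction rates are the 30-min fluorescence difference (ex 525, em 598 nm) in wells containing 15 nM Sfp, 5 uM rhodamine-CoA and 12.5 uM BHQ-2-YbbR at pH 7.6 with 10 mM MgCl2.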
ALDH1A1 block = inhibitors of human aldehyde dehydrogenase 1A1; Potency, µM (top dose mostly 75.3 µM), for inactives: top-dose activity, negative = inhibition, usual class: inhibitors; 220,000 tested, 7.3% active; P00352; Purified ALDH1A1, NADH fluorescence, propionaldehyde substrate; active means well fitted inhibition curve with a large enough effect, not every such curve was filed as active; inconclusive means small, poorly fitted or top-dose-only effect, or another doubt; inactive means no such curve, though single readings can be large or run the other way;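 further: potency means the concentration at half of the fitted maximal effect; plate controls were no enzyme wells and a reference inhibitor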
G9a inh = blocks human histone lysine methyltransferase G9a; G9a H3K9 monomethylation, AlphaScreen, 2 h; Potency, µM (doses to about 102 µM), for inactives: top-dose activity, negative = inhibition, hits mostly inhibitors; 350,000 tested, 8.8% active; further: potency means the concentration at half of the fitted maximal effect; on the % scale 0 is the no-effect control and ±100 the full control effect; nearly all actives have a fitted effect of over 75% in size
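Compounds were preincubated with 20 nM G9a for 15 min, after which biotinylated H3K9 peptide (500 nM) and SAM (20 uM) started a 2 h room-temperature reaction. Monomethylated product was quantified by antibody-based AlphaScreen chemiluminescence.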
miR-21 reporter = miR-21 reporter, rising signal. HeLa miR-21 FLuc reporter, luciferase, 48 h. Potency, µM (highest dose often 38.3 µM), for the others: at the highest dose reporter change, positive = more light. 340,000 tested, under 10 active. AID 2288; active = well fitted rising curve with a large enough effect; inconclusive = small, poorly fitted or top-dose-only effect; inactive = no such curve, though single readings can be large or run the other way;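 further: % of control where 0% means no effect; miR-21 action dims this reporter so a rising signal means less miR-21 action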
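Using DMEM plus 10% FBS, HeLa miR-21-FLuc cells are incubated with test compounds (final up to about 40uM) for 48 hours; firefly luciferase signal is then imaged following reagent-mediated lysis.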
LMNA splice mod = LMNA splicing modulation. HeLa LMNA splicing GFP/RFP minigene ratio, 48 h. Potency, µM (highest dose often 46.1 µM), for the others: at the highest dose ratio change, negative = inhibition, hits mostly inhibitors. 200,000 tested, 0.01% active. AID 1487; active means well fitted inhibition curve with a large enough effect in the signal ratio, with a control signal flat, not every such curve was filed as active; inconclusive means small, poorly fitted or top-dose-only effect, or effect the other way, or a change in a side signal; the % refers to the signal ratio; further: potency means the concentration at half of the fitted maximal effect; on the % scale 0 is the no-effect control and ±100 the full control effect
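S3 HeLa stable clones carrying a lamin A-EGFP splicing minigene plus DsRed2 were seeded at 600 cells/well in Opti-MEM with 2% FBS, pin-dosed and incubated 48 h at 37°C. Acumen cytometry (488 nm) gave the GFP/RFP total-intensity ratio.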
* = called active by the depositor; [ ] = dose if it differs, or a comment. Sampled rows, rich in hits. Any-hit rate of the full collection: about 13%. Unless noted, the call rests on the fitted dose curve; in most records, active means well fitted curve in the direction sought with a large enough effect; inconclusive means small, poorly fitted or top-dose-only effect, or another doubt; inactive means no such curve, though single readings can be large; an effect the other way counts as inactive or inconclusive.

The opening three records as a preview:
For COc1ccc(-n2c(=O)c(C)nc3cncnc32)cc1 the results were Sfp inh 12%, ALDH1A1 block 25µM* and G9a inh -7%[12.7 µM].
For Cc1nc2cncnc2n(-c2ccccc2)c1=O the results were Sfp inh -1%, ALDH1A1 block inconclusive and G9a inh 16%[12.7 µM].
`COc1ccc(NC(=O)CC2C(=O)N(C)C(=S)N2CCc2ccc(F)cc2)cc1` (stereo not given) gave JMJD2E inh -5%, Sfp inh 11%, G9a inh 5%[59 µM] and miR-21 reporter inconclusive.

Results, from the first entry:
For COc1ccc(-n2c(=O)c(C)nc3cncnc32)cc1 the results were Sfp inh 12%, ALDH1A1 block 25µM* and G9a inh -7%[12.7 µM].
For Cc1nc2cncnc2n(-c2ccccc2)c1=O the results were Sfp inh -1%, ALDH1A1 block inconclusive and G9a inh 16%[12.7 µM].
`COc1ccc(NC(=O)CC2C(=O)N(C)C(=S)N2CCc2ccc(F)cc2)cc1` (stereo not given) gave JMJD2E inh -5%, Sfp inh 11%, G9a inh 5%[59 µM] and miR-21 reporter inconclusive.
Screening CCN1C(=O)C(CC(=O)Nc2ccc(OC)cc2)N(CCCN2CCN(c3ccc(F)cc3)CC2)C1=S (stereo not given) returned JMJD2E inh -14%, Sfp inh 15%, ALDH1A1 block -12%, G9a inh -11%[59 µM] and miR-21 reporter 26%.
Screening COc1ccc(CCN2C(=S)N(C)C(=O)C2CC(=O)Nc2ccc(OC)cc2)cc1 (stereo not given) returned JMJD2E inh -5%, Sfp inh 12%, ALDH1A1 block 4.5µM*, G9a inh -30% and miR-21 reporter 28%.
`CCN1C(=O)C(CC(=O)Nc2ccc(OC)cc2)N(CCc2ccc(F)cc2)C1=S` (stereo not given) gave JMJD2E inh -16%, Sfp inh 13%, ALDH1A1 block 14µM*, G9a inh 24%[59 µM], miR-21 reporter inconclusive and LMNA splice mod inconclusive.
Screening COc1ccc(NC(=O)CC2C(=O)N(C)C(=S)N2CCc2ccccc2)cc1 (stereo not given) returned JMJD2E inh -13%, Sfp inh -11%, ALDH1A1 block 0.89µM*, G9a inh 11%[59 µM], miR-21 reporter 21% and LMNA splice mod inconclusive.
For CCOC(=O)Cn1nc(N2CCN(c3ccc(F)cc3)CC2)ccc1=O the results were G9a inh 11%[59 µM] and miR-21 reporter 0%.
`O=c1n(Cc2ccc([N+](=O)[O-])cc2)c2ccccc2c2nc(-c3ccccc3)nn12` gave G9a inh 5%[59 µM], miR-21 reporter 2% and LMNA splice mod 13%[46 µM].
Screening CCOC(=O)Cc1csc(NC(=O)c2ccc(S(=O)(=O)N3CCCC3)cc2)n1 returned JMJD2E inh -3%, Sfp inh 6%, ALDH1A1 block 11µM*, G9a inh 9%[59 µM], miR-21 reporter 21% and LMNA splice mod inconclusive.
`CCOC(=O)CSc1nnc(CNC(=O)c2ccc(S(=O)(=O)N3CCCC3)cc2)n1C` gave JMJD2E inh -5%, Sfp inh 7%, ALDH1A1 block 19µM*, G9a inh inconclusive, miR-21 reporter -8% and LMNA splice mod 7%.
COc1ccc(CNC(=O)c2ccc(S(=O)(=O)N3CCCC3)cc2)cc1OC was read as JMJD2E inh 6%, Sfp inh 5%, ALDH1A1 block 10µM*, G9a inh 27%, miR-21 reporter 9% and LMNA splice mod 2%.
Screening COc1ccc(CNC(=O)c2ccccc2SCC(=O)N2CCCC2)cc1OC returned G9a inh 45µM*.
For Cc1cc(C)cc(NC(=O)N2CCC(CN3CCCCCC3)CC2)c1 the results were G9a inh inconclusive, miR-21 reporter 0% and LMNA splice mod -12%[46 µM].
Screening Cc1ccc2cc(CCNC(=O)c3ccc(S(=O)(=O)N4CCOCC4)cc3)c(=O)[nH]c2c1 returned Sfp inh 17%, G9a inh 33% and miR-21 reporter -5%.
For Cc1ccc2cc(CCNC(=O)c3ccc(S(=O)(=O)N4CCCCC4)cc3)c(=O)[nH]c2c1 the results were JMJD2E inh inconclusive, Sfp inh -11%, ALDH1A1 block 14µM*, G9a inh -19% and miR-21 reporter -4%.
Screening O=C(NCc1ccc(F)cc1)c1ccc(S(=O)(=O)N2CCCCC2)cc1 returned G9a inh 20%[12.7 µM].

Source: PubChem (National Center for Advancing Translational Sciences (NCATS))
